According to PMC8597046, “Use of Mixture Dosing and Nonlinear Mixed Effect Modeling of Eight Environmental Contaminants in Rabbits to Improve Extrapolation Value of Toxicokinetic Data” (Environmental Health Perspectives, 2021):

Experiment: Nonlinear mixed effect (NLME) compartmental modeling of merged IV and oral serum concentrations
Conditions: mean
Source text: A nonlinear mixed effect (NLME) modeling approach was used to analyze simultaneously all data obtained from the different rabbits after both IV and oral administrations and to provide robust estimates of the typical TK parameters.
The primary parameters of the model, namely the volume of distribution of the central compartment (V1), the first-order rate constants ( K10 , K12 , K21 , and Kabs plus K13 , K31 for PFOA) and the bioavailability (F) and their associated precisions [standard error (SE)] were estimated by minimizing an objective function value (OFV) expressed as minus twice the log of the likelihood estimation ( −2LL ). […] Marginal likelihood was approximated by using the Laplacian engine by default and, when this engine was unable to determine the SE of the estimate, the Quasi-Random Parametric Expectation Maximization (QRPEM) was selected.
Between subject variability (BSV) of the parameters was measured using the exponential model θparameter_i=θtv_parameter×exp (ηi), where θparameter_i is the parameter estimated for the ith individual, θtv_parameter is the typical population value of the parameter, and ηi is the deviation associated with the ith individual from the corresponding value of the parameter at the population level.
The distribution of ηi was assumed to be normal with a mean of 0 and a variance ω² . BSV was reported as a coefficient of variation (CV) in the original scale CV(%)=100× exp (ω^2)−1 .
The residual variance was modeled using a combined additive and proportional error model Cobsij=Cpredij(1 + ε1ij) + ε2ij, where Cobsij and Cpredij are respectively the jth observed and predicted concentrations for the ith individual, and ε1ij and ε2ij are the multiplicative and additive residual errors.
Secondary parameters were calculated from the population primary parameters.
The clearance values (CL) were estimated using Equation 5: (5) CL=K10×V1, where V1 is the volume of the central compartment and K10 is the elimination rate constant from the central compartment.
The volume of the peripheral compartment (V2) was estimated with Equation 6: (6) V2=V1×(K12/K21), where K12 and K21 are the distribution rate constants between the central and the peripheral compartments.
The clearance of distribution (Q) was estimated using Equation 7: (7) Q=K12×V1, with […] and K12 as defined above.
The volume of distribution associated with the terminal phase was estimated with Equation 10: (10) VZ=CL/λZ, with λZ as defined above.
The AUC was computed as a secondary parameter using Equation 11: (11) AUC=Dose/CL.
The terminal half-life was estimated with Equation 1, as previously described.

[1] = population primary parameter, typical value

Compound | tvK12 (distribution rate constant) [1] | tvK21 (distribution rate constant) [1] | Volume(s) of the peripheral compartment (population secondary parameter, for PFOA first peripheral compartment) | tvKabs (rate constant of absorption) (population primary parameter, typical value, MEHP after oral DEHP)
O=S(=O)(c1ccc(O)cc1)c1ccc(O)cc1 [BPS, bisphenol S] | 1.342 h⁻¹ | 0.122 h⁻¹ | 18 L/kg | 
CCCCC(CC)COC(=O)c1ccccc1C(=O)O (centres unmarked) [MEHP, mono(2-ethylhexyl)phthalate] |  | 0.027 h⁻¹ |  | 0.111 h⁻¹
